From US12404489B2, “Establishing topographic organization in three-dimensional tissue culture” (MEMORIAL SLOAN-KETTERING CANCER CENTER, priority 2017, dated 2025)
“Also recorded” adds a separate entry of the source.

Tested on: SHH signaling activity in SHH-organoids
Test: Drug treatment of SHH-organoids, positional domains analysed at day 20
Assay type: cell-based, human
Conditions: day 20 SHH-organoids, doxycycline 400 ng/ml, drug day 0-10; lovastatin 5 μM, AY9944 1.25 μM, cyclopamine 1 μM

## CC1=C2C[C@H]3[C@@H](CC=C4C[C@@H](O)CC[C@@]43C)[C@@H]2CC[C@]12O[C@@H]1C[C@H](C)CN[C@H]1[C@H]2C [cyclopamine]
  SHH signaling activity (efficacy and range): inhibition of SHH signaling activity; also recorded: near complete inhibition of SHH activity
